Data on 2 compounds can be found in ChEMBL document CHEMBL1743201, “Casarett and Doull's Toxicology The Basic Science of Poisons, 7th edition” (2008).

Sequences of proteins named here, by UniProt entry; tags and fusion partners are left off. A change or cut given only in a name is not applied to a line headed by its entry. Residues count along the entry.
UniProt P35503, 29-534 limits assumed: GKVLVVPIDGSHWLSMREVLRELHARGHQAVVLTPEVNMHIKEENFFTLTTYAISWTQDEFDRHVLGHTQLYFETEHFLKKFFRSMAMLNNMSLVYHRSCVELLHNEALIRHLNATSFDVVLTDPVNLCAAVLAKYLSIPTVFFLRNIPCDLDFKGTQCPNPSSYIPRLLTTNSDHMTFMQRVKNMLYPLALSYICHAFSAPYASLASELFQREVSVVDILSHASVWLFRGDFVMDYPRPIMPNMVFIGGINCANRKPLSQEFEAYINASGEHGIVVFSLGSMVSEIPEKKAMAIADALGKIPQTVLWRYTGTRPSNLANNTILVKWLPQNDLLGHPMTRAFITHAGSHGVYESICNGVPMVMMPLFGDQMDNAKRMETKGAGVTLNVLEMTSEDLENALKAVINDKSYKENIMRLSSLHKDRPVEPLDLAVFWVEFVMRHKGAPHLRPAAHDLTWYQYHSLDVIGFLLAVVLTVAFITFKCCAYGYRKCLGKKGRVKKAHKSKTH
UniProt Q9H4Y5: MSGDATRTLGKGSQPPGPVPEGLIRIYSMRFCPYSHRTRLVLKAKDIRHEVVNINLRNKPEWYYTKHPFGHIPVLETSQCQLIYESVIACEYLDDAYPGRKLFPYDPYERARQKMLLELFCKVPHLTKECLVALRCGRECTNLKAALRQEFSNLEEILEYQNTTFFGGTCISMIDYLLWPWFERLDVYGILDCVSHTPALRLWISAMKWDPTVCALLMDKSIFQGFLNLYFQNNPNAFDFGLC
UniProt P78417, 2-241 limits assumed: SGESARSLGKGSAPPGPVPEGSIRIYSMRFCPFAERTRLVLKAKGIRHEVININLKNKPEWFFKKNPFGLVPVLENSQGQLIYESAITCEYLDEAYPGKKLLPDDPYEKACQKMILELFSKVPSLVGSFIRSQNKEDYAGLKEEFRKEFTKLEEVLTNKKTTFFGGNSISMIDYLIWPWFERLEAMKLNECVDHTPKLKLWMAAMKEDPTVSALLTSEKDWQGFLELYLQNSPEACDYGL

Holding throughout (type): ADME
In series [1] the target is UDP-glucuronosyltransferase 1A3 (Homo sapiens, UniProt P35503). The series can be described thus: Substrate of human UDP-glucuronosyltransferase UGT1A3.
The target in series [2] is Glutathione S-transferase omega-2 (Homo sapiens, UniProt Q9H4Y5). As to the kind of experiment: Substrates for human cytosolic glutathione transferase GSTO2.
For series [3], the target named is Glutathione S-transferase omega-1 (Homo sapiens, UniProt P78417). The series can be described thus: Substrates for human cytosolic glutathione transferase GSTO1.

Take `CO[C@]12CC[C@@]3(C[C@@H]1[C@](C)(O)C(C)(C)C)[C@H]1Cc4ccc(O)c5c4[C@@]3(CCN1)[C@H]2O5`: in series [1], the Activity entry is given as “Substrate”.

For the compound `C[As](=O)(O)O`, the Activity entry in series [2] and in series [3] was “Substrate” throughout.
